AlphaSeq binding of Ab-14 light chain variants to a spike HR2 peptide

The measurements come from Li et al. 2023 (doi:10.1038/s41467-023-39022-2) through the FLAb antibody collection.

Antigen: PDVDLGDISGINAS, a 14-residue peptide of the SARS-CoV-2 spike HR2 region.

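The variants were designed computationally from a first round of random CDR variants and then made and measured. Several design methods are mixed in this list. In AlphaSeq, yeast of one mating type display the scFv and yeast of the other type display the target. After mating in shaken culture at 30 °C for 16 h, diploids were selected and their barcode pairs sequenced. A regression on co-assayed BCL2-family reference pairs converts the normalised counts of each replicate to an apparent Kd. There are six technical replicates.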

Parent scFv Ab-14: VH joined to VL by a 15-residue (Gly4Ser)3 linker. Changes lie in the light chain CDRs alone.
VH: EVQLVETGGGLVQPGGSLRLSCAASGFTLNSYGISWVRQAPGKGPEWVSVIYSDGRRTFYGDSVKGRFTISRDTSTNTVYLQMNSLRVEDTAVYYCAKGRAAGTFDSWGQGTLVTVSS
VL: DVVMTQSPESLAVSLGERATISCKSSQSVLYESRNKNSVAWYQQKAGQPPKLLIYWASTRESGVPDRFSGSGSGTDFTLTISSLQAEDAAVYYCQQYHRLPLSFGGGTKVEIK

Variants are written as CDR1, CDR2 and CDR3 of the light chain (limits as in the source). Parent: KSSQSVLYESRNKNSVA, WASTRES, QQYHRLPLS.
This list holds designs with more than six substitutions.
Values are log10 of the apparent Kd in nM; lower means stronger binding.
"ND" means that the variant was in the library but no mating with the target was seen in that replicate; the authors take this as a sign of poor binding, and no number exists.
The parent sequence was in this pool as ten entries: three were never detected, three once, and four in most replicates, with averages from 0.34 to 2.37.
A sequence measured in both rounds can read differently, since the two assays cover different ranges.
The authors' rule: three or more of the six replicates give a measured affinity, fewer mean a poor binder.
Background: pairings of all light chain designs with three empty control strains gave a value in 4% of cases (median 2.64, 5th percentile 1.59). Values in that range, when seen in few replicates, are hard to tell from nonspecific mating.

QIYQAMHTLSQMKDNVA | DVNERGN | QQYFRLPLS: 0.43, 0.50, 0.32, 0.01, 0.44, 0.27.
MVNGIMDHLSKNTNNVA | ETSTRNS | QQYDRLPLV: 0.63, 0.57, 0.91, 0.28, 0.40, 0.32.
KWSISDLQGDRNKNSVA | NASCREQ | QQYHRLPLS: 0.19, 0.14, 0.11, -0.07, 0.04, 0.10.
KQQSSEMMGSRNKNSVA | SASKRES | QQYHRLPLS: 1.19, 1.37, 1.39, 1.10, 1.33, 0.90.
HTQHLGFGDPAHANSIA | EVSQVCS | QQYMRLPLI: 0.44, 0.54, 0.18, 0.22, 0.27, 0.46.
KIGQQVTYESTVNNAIA | QMTTREE | QQYHRLPLS: 0.94, 0.91, 0.89, 0.57, 0.71, 1.10.
HITYGLQVAGRHSKSIA | QAETRAK | QQYDRLPLI: 0.95, 1.10, 0.67, 1.07, 1.04, 1.14.
TIGAQLMYGMRNRSNVA | EVSQRLN | QQYDRLPLL: 0.83, 1.01, 1.46, 0.79, 0.89, 1.36.
MISDLTMYGSRNKNSIA | DSSTRGS | QQYHRLPLS: -0.44, -0.34, -0.64, -0.48, -0.20, -0.37.
KLSKSVMYESRMKNSVA | SASTRYE | QQYHRLPLS: 0.09, 0.39, -0.06, -0.12, 0.14, 0.24.
MISQLINMGSFAINSVA | QASIRCN | QQYDRLPLM: 1.88, 2.13, 2.26, 1.90, 1.23, 1.54.
MISQLFMYGSRNYNSVA | QASTREK | QQYDRLPLI: 1.34, 1.28, 1.21, 1.20, 1.02, 1.41.
KLTSVTGQEKVRGNNVA | EMETREN | QQYDRLPLS: 0.89, 1.07, 0.79, 0.91, 0.82, 1.24.
KLSWDDMSHFNTRSAIA | DMTMRAF | QQYNRLPLD: 1.45, 0.63, 1.89, 1.28, 1.30, 1.03.
MVSQLMVWGLHTKNSIA | EAQMRLN | QQYDRLPLF: ND, 2.39, ND, ND, 2.20, ND.
HMSQVTMYGYWTKNSVA | QTSTREE | QQYDRLPLS: 0.75, 0.89, 0.54, 0.50, 0.72, 0.98.
KLREVQHVESKQKGNVA | DNSTRES | QDYYRLPLS: 1.54, 3.20, 1.28, ND, 1.72, 2.17.
MLSDLVHMGVRNTNSVA | DNSTRGS | QQYDRLPLS: 1.39, 0.86, 1.13, 0.93, 1.20, 1.06.
MMSQVTGSGQRHRNNVA | QTSEREP | QQYDRLPLI: 1.48, 1.29, 1.28, 1.52, 1.02, 1.38.
KISDACQTDMGRMSAVA | DDDVAND | QQYARLPLA: 1.94, 1.54, 1.76, 1.38, 2.01, 2.49.
HMNHEFLGYSNYEQAIA | HGSQRLY | QQYSHLPLS: 0.32, 0.30, -0.03, 0.62, 0.43, 0.62.
KIHCRELWHQGQINNIA | EAAKLVE | QQYALLPLA: 0.68, 0.54, 0.44, 0.29, 0.71, 0.78.
MLYGLSNSMSKNKNNVA | EMTTREV | QQYDRLPLV: 0.84, 0.76, 1.16, 0.80, 0.83, 1.13.
KLSGSHLYESRNKNSVA | HASLRLS | QCYHRLPLS: 0.32, 0.19, 0.68, 0.09, -0.04, 0.64.
KLWAYLQGLERNMQNVA | DGIYRST | QQYDRLPLS: 0.69, 0.59, 0.35, 0.32, 0.47, 0.52.
KISQLVNFLGKGKNSVA | QMSTREE | QQYDRLPLS: 0.54, 0.27, 0.74, 0.23, 0.21, 0.41.
MISSISSMGQFAKNSVA | QASLRND | QQYDRLPLT: 1.10, 0.52, 0.68, 0.37, 0.54, 0.88.
TISQMWFLESKNKNNVA | EESTRLD | QSYFRLPLS: 0.62, 0.59, 0.67, 0.81, 0.70, 0.85.
RIQMTDLEGRMAWSNIA | DNEESYR | QQYVRLPLY: ND, ND, 0.77, ND, ND, ND.
KVSEFMRGLMGRKDSIA | DNTTRGS | QQYDRLPLS: ND, ND, 2.11, 2.56, 2.85, ND.
KLQQLGLYEQRNCNSVA | SASTRCS | QQYHRLPLS: 0.10, 0.20, 0.20, -0.04, 0.04, 0.25.
KIDMSLNYESHALNSIA | EEVMHTA | QQYDRLPLF: ND, ND, ND, ND, ND, ND.
KIQWYPLEFRGTISAVA | EAATRYN | QQYMRLPLM: 0.35, 1.84, 0.63, 1.24, 0.89, 2.13.
TLGDMVHTESRNKNSIA | DMRTRES | QQYYRLPLS: -0.02, -0.44, -0.09, -0.54, -0.50, 0.30.
KGSQWQLYESRNKNNVA | NASLREM | QQYHRLPLS: 0.63, 0.24, 0.35, 0.10, -0.01, 0.60.
KIDQSELEESRNKNSVA | NATVRED | QQYHRLPLS: 0.20, 0.06, -0.04, -0.02, -0.06, 0.20.
TISQMTSLFSQSINNVA | EVSTRLN | QQYDRLPLA: 0.55, 0.30, 0.39, 0.28, 0.36, 0.78.
TIGQSTLMESTNRNNVA | QMSTREK | QQYDRLPLS: 0.51, 0.80, 0.77, 0.25, 0.56, 0.86.
KLAQSVAMTSHHINSVA | QSTTREE | QQYNRLPLS: -0.25, -0.09, -0.38, 0.07, -0.37, -0.20.
QLDHQLQYDDANKKAVA | EMTEVTT | QQYHRLPLE: 1.49, 1.90, 1.75, 1.65, 1.91, ND.
KLDHYKLGENGMRGSVA | NMTIREY | QQYFHLPLF: ND, ND, 0.92, 2.05, ND, ND.
SLTSHEEEKKGAEASVA | EAVMLES | QQYHQLPLM: 1.12, 1.79, 1.29, 2.03, 2.29, 1.62.

7 of these entries, quoted again:

{"CDR-L1": "TISQMTSLFSQSINNVA", "CDR-L2": "EVSTRLN", "CDR-L3": "QQYDRLPLA", "replicates, log10 nM": "0.55, 0.30, 0.39, 0.28, 0.36, 0.78"}
{"CDR-L1": "KIGQQVTYESTVNNAIA", "CDR-L2": "QMTTREE", "CDR-L3": "QQYHRLPLS", "replicates, log10 nM": "0.94, 0.91, 0.89, 0.57, 0.71, 1.10"}
{"CDR-L1": "MISDLTMYGSRNKNSIA", "CDR-L2": "DSSTRGS", "CDR-L3": "QQYHRLPLS", "replicates, log10 nM": "-0.44, -0.34, -0.64, -0.48, -0.20, -0.37"}
{"CDR-L1": "TIGAQLMYGMRNRSNVA", "CDR-L2": "EVSQRLN", "CDR-L3": "QQYDRLPLL", "replicates, log10 nM": "0.83, 1.01, 1.46, 0.79, 0.89, 1.36"}
{"CDR-L1": "MISSISSMGQFAKNSVA", "CDR-L2": "QASLRND", "CDR-L3": "QQYDRLPLT", "replicates, log10 nM": "1.10, 0.52, 0.68, 0.37, 0.54, 0.88"}
{"CDR-L1": "QIYQAMHTLSQMKDNVA", "CDR-L2": "DVNERGN", "CDR-L3": "QQYFRLPLS", "replicates, log10 nM": "0.43, 0.50, 0.32, 0.01, 0.44, 0.27"}
{"CDR-L1": "TISQMWFLESKNKNNVA", "CDR-L2": "EESTRLD", "CDR-L3": "QSYFRLPLS", "replicates, log10 nM": "0.62, 0.59, 0.67, 0.81, 0.70, 0.85"}